Tested on: CYP7A1 mRNA expression by rat hepatoma L35 cells
Conditions: THP-1 cells with CDCA 100 μM and rosiglitazone; L35 cells 24 h
Experimental: Rat L35 cells were cultured in Dulbecco's modified eagle medium (DMEM) as described (Trawick, et al., 1996, J. Lipid Res. 37:24169-24176; Trawick, et al., 1997, J Biol. Chem. 272:3099-3102). THP-1 cells, were cultured as described (Moulton, et al., 1992, Proc. Natl. Acad. Sci. USA. 89:8102-8106).
RNA was isolated, blotted onto nitrocellulose and probed with ^32P-labeled cDNA encoding rat CYP7A1 and β-actin. The relative abundance of CYP7A1 mRNA to (β-actin MRNA was determined using Phosphorimager quantitation (Molecular Biosystems).
After 24 hours, cells were harvested, polyA RNA was isolated, blotted onto nitrocellulose and probed with ^32P-labeled cDNA encoding rat CYP7A1 and β-actin.
After 24 h, cells were harvested and the relative level of CYP7A mRNA to β-actin MRNA was quantitated.

CN(CCOc1ccc(CC2SC(=O)NC2=O)cc1)c1ccccn1 (stereo not shown) [rosiglitazone]
effect on ability of THP-1 cells exposed to CDCA to produce conditioned medium that represses CYP7A1 expression by L35 cells: blocked
